Target: human μ-opiate receptor (Homo sapiens, UniProt P35372)
Experiment: μ binding: [3H]-naloxone displacement, membrane preparation of CHO-K1 cells expressing the human μ-opiate receptor
Details: not given

Sequences of proteins named here, by UniProt entry; tags and fusion partners are left off.
UniProt P35372, whole entry, looked up: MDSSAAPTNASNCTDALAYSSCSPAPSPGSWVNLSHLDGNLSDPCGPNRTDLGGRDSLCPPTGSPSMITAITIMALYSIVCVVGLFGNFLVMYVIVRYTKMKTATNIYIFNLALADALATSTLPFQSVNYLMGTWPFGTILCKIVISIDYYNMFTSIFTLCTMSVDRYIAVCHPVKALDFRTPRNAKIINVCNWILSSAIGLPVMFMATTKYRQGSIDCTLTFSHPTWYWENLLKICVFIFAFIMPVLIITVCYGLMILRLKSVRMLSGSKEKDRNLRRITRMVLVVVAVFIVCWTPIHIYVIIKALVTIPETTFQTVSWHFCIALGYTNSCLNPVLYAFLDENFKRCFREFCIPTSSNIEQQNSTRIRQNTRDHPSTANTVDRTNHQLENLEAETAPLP

Row | Structure (SMILES) | Ki
1 | CN(C)C1(c2ccccc2)CCC2(CC1)OCCc1c2[nH]c2ccncc12 (single isomer, unassigned) | 1.9 nM
2 | CCC1(N(C)C)CCC2(CC1)OCCc1c2[nH]c2ncccc12 (stereo not drawn) | 1 nM
3 | CN(C)C1(c2ccccc2)CCC2(CC1)OCCc1c2[nH]c2ncc(C(F)(F)F)cc12 (stereo not drawn) | 638 nM
4 | CN(C)C1(c2cccc(F)c2)CCC2(CC1)OCCc1c2[nH]c2ncccc12 (stereo not drawn) | 31.7 nM
5 | CNC1(c2cccs2)CCC2(CC1)OCCc1c2[nH]c2ncccc12 (stereo not drawn) | 48.3 nM
6 | CN(C)C1(c2cccs2)CCC2(CC1)OCCc1c2[nH]c2ccncc12 (stereo not drawn) | 303 nM
7 | CN(C)C1(c2cc3ccccc3s2)CCC2(CC1)OCCc1c2[nH]c2ncccc12 (stereo not drawn) | 56.7 nM
8 | CN(C)C1(CCc2ccccc2)CCC2(CC1)OCCc1c2[nH]c2ncccc12 (stereo not drawn) | 1.4 nM
9 | CN(C)C1(c2ccc3c(c2)OCO3)CCC2(CC1)OCCc1c2[nH]c2ncccc12 (stereo not drawn) | 77.3 nM
10 | CN(C)C1(c2ccccc2)CCC2(CC1)OCCc1c2[nH]c2ccncc12 (stereo not drawn) | 14.7 nM
11 | Cc1cccc(C2(N(C)C)CCC3(CC2)OCCc2c3[nH]c3ncccc23)c1 (stereo not drawn) | 81.7 nM
12 | CNC1(c2ccccc2)CCC2(CC1)OCCc1c2[nH]c2ncccc12 (stereo not drawn) | 637 nM
13 | COCCCC1(N(C)C)CCC2(CC1)OCCc1c2[nH]c2ncccc12 (stereo not drawn) | 83.5 nM
14 | CN(C)C1(CCc2ccccc2)CCC2(CC1)OCCc1c2[nH]c2ncc(C(F)(F)F)cc12 (stereo not drawn) | 38 nM

Test system: rats
Experiment: Analgesia testing in the tail-flick test in rats
Details: Rat, i. v.; at effect maximum, 20 minutes after administration

Row | Structure (SMILES) | Tail-flick ED50
15 | CN(C)C1(c2ccccc2)CCC2(CC1)OCCc1c2[nH]c2ncccc12 (stereo not drawn) | Rat, i. v. ED50: 15 μg/kg
